# Values quoted from earlier work in patent US9216962B2 (priority 2011, dated 2015).
# Key:
# [1] = test system: TNF-alpha; details: in vivo; cited from earlier work
# [2] = test system: breast cancer cells (MDA-MB-231) and fibroblast osteosarcoma cells (U2OS); details: cited from earlier work
Compound,expression of TNF-alpha [1],effect on normal cells [2]
phenyl butyric acid,inhibit expression of TNF-alpha,
CCCCCCCC(=O)SCC/C=C/[C@@H]1CC(=O)NCc2nc(cs2)C2=N[C@@](C)(CS2)C(=O)N[C@@H](C(C)C)C(=O)O1 [largazole],,less effect
